Results: US20260382623A1, “NOVEL COMPOUND FOR INHIBITING PROTEIN KINASES AND PHARMACEUTICAL COMPOSITION COMPRISING SAME” (published 2026)

By UniProt entry, the sequences of proteins in these tests, tags left out. Residues count along the entry.
UniProt Q9H2K8, whole entry: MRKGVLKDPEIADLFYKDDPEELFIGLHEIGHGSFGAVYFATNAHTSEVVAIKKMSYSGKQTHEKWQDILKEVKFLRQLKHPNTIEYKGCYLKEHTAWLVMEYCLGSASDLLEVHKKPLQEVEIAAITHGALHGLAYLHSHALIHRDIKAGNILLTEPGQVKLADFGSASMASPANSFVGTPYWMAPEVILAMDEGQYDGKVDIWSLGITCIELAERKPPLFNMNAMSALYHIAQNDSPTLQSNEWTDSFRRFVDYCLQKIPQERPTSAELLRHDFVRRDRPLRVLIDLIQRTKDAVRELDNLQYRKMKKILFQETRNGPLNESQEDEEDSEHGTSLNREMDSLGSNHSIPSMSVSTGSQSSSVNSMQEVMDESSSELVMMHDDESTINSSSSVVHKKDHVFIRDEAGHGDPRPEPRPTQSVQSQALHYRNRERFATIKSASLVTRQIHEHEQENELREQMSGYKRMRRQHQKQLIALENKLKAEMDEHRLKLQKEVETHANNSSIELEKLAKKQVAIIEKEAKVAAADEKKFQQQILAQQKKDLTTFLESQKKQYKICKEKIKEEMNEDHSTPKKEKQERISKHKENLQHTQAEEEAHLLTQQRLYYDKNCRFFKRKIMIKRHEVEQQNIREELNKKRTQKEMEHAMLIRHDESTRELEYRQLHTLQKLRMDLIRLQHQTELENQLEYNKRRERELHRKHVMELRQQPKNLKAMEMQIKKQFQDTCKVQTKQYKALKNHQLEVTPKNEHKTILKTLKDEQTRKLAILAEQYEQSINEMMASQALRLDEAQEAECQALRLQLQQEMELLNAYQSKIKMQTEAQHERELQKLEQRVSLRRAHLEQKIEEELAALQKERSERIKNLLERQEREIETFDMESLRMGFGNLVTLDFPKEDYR
UniProt Q96SB4, whole entry: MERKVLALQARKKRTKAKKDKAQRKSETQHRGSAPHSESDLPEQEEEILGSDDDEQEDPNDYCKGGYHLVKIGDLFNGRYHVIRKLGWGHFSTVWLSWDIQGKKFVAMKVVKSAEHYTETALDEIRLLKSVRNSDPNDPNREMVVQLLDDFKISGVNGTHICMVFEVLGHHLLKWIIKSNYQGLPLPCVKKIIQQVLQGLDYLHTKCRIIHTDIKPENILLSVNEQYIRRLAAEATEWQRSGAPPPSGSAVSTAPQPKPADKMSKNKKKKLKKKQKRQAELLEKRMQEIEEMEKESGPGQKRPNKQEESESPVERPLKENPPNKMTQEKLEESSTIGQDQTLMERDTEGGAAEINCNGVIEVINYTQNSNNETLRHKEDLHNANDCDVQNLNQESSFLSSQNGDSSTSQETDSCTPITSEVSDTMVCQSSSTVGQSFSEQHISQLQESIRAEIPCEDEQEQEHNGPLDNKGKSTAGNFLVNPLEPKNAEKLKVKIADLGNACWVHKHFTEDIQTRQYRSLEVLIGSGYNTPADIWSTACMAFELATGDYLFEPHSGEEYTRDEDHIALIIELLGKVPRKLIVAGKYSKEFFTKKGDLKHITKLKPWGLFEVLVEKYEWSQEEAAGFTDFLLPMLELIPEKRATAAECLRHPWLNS
UniProt O75716, whole entry: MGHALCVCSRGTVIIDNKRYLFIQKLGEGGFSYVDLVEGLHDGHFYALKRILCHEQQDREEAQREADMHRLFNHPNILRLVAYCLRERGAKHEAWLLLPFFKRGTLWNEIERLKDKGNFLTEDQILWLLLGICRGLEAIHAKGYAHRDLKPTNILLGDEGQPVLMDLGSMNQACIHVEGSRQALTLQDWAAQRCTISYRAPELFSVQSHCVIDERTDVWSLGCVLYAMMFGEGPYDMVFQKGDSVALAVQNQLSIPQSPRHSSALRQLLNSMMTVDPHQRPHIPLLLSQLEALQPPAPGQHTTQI
UniProt P07947, whole entry: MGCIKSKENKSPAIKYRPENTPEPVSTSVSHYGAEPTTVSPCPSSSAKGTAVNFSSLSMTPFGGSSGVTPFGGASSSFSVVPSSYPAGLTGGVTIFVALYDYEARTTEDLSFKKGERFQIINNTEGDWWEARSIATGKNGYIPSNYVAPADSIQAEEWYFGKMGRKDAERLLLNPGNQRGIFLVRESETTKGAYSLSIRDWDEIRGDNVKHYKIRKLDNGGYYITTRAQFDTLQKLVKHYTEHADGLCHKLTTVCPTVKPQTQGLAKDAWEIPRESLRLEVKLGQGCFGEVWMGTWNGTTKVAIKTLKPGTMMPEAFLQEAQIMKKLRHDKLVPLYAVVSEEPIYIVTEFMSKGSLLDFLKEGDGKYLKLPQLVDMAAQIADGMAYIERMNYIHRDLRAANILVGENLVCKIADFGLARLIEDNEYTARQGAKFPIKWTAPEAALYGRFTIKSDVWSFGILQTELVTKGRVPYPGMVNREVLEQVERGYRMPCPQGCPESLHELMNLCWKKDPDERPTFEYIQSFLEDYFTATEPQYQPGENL
UniProt Q07912, whole entry: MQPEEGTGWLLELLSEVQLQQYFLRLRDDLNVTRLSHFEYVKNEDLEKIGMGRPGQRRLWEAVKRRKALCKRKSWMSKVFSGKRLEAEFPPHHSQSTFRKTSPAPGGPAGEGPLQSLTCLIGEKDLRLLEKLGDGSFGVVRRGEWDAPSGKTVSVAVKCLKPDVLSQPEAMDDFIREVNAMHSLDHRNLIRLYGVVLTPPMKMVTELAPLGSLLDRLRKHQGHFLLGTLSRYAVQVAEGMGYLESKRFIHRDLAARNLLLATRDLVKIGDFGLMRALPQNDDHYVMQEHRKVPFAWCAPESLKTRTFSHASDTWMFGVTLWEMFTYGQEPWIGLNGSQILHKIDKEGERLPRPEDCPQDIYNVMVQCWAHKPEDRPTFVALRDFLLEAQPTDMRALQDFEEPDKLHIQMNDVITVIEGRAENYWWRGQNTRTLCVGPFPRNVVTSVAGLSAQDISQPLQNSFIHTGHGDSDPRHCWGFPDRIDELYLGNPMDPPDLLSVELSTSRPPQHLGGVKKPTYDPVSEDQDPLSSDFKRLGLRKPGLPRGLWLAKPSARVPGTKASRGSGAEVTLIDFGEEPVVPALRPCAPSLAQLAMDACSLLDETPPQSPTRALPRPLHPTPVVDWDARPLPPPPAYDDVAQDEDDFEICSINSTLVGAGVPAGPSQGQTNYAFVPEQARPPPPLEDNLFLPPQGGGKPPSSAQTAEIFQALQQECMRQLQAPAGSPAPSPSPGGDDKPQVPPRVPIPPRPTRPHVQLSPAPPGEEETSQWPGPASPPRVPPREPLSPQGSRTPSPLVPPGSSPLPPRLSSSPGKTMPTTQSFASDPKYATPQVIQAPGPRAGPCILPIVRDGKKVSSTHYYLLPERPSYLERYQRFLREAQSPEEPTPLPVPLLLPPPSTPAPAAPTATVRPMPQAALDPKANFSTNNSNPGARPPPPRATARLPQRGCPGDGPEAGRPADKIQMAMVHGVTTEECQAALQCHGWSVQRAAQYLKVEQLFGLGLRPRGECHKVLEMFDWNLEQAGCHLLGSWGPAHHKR
UniProt P22607, 23-806 limits assumed: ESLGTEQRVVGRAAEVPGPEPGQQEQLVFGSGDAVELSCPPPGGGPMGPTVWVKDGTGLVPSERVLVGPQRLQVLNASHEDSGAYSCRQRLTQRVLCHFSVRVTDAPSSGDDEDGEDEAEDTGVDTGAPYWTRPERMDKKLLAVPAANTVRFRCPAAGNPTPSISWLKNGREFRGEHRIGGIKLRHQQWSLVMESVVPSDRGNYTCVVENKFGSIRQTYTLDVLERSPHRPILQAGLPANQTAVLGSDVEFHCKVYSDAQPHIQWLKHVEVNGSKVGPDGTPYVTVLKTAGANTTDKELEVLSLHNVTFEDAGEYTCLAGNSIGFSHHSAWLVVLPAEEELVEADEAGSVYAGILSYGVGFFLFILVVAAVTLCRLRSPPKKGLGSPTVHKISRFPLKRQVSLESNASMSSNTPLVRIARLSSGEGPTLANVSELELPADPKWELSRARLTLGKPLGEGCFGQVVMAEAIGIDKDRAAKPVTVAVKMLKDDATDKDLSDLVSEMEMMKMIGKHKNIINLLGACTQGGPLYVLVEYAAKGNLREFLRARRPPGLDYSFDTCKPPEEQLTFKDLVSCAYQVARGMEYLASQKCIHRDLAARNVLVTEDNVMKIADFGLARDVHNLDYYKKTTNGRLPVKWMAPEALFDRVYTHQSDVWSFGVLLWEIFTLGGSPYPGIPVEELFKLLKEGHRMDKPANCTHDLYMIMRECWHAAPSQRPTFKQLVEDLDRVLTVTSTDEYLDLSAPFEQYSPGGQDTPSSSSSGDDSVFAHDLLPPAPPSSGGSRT
UniProt Q15759, whole entry: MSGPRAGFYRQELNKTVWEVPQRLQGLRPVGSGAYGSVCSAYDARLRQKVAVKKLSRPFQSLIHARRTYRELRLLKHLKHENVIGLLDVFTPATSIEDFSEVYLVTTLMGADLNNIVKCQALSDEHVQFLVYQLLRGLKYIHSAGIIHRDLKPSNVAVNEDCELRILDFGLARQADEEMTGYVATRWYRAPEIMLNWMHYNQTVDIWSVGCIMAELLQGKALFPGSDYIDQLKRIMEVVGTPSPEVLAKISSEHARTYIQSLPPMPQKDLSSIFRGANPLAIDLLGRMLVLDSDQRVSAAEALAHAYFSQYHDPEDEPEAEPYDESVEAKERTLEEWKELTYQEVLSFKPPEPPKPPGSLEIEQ
UniProt Q15418, whole entry: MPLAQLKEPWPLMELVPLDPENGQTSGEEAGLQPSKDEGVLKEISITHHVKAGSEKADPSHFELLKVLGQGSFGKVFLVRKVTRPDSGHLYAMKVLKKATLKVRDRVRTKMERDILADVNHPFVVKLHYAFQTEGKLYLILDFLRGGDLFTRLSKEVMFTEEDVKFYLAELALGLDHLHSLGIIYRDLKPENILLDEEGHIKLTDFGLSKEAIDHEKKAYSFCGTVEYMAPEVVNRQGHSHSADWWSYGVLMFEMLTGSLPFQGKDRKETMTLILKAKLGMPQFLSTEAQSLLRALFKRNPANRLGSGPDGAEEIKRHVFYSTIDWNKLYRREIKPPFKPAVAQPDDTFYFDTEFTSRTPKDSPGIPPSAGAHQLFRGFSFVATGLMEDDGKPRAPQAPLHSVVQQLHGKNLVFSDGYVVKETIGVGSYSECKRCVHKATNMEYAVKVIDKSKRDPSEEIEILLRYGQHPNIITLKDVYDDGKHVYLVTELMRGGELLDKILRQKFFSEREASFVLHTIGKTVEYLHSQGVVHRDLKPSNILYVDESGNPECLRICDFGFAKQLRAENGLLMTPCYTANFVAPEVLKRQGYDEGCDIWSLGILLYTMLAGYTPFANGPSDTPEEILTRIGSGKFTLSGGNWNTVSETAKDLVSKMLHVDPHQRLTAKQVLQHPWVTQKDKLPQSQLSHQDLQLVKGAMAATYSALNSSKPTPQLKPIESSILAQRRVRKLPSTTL
UniProt P22612, whole entry: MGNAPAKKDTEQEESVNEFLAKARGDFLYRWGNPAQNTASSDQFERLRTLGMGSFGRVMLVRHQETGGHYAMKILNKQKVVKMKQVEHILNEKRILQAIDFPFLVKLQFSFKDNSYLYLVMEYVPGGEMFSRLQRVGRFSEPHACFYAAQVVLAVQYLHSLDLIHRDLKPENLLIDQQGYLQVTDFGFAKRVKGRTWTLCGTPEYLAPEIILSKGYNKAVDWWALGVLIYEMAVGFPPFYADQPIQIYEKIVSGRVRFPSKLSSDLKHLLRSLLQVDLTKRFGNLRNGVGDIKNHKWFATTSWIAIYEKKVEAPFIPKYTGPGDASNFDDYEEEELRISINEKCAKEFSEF
UniProt P04049, whole entry: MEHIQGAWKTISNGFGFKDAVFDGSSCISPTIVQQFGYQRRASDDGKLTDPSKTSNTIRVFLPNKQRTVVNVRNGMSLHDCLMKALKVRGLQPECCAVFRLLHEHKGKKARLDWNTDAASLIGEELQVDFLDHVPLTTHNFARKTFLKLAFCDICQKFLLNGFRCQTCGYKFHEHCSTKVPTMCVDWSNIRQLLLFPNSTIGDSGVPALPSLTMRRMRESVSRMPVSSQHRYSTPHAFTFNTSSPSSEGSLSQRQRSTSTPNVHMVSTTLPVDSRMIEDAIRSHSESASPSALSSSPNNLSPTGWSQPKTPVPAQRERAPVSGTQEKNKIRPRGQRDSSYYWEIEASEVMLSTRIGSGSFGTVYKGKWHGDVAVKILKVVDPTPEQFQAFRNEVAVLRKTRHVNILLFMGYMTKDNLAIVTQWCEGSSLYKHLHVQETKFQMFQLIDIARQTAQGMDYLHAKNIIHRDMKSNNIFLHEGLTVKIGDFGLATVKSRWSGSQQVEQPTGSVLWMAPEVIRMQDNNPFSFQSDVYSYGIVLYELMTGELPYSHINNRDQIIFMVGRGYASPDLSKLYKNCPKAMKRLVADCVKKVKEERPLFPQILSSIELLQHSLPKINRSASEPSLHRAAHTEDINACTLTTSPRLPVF

Assays:
RET = RET (Homo sapiens, UniProt P07949); assay: Kinase panel inhibition, RET; details: 1 μM
full kinase panel [1] = target: full kinase panel (Homo sapiens, UniProt Q9H2K8); assay: Full kinase panel inhibition by Example compounds 8 and 51 at 1 μM (Tables 11 to 14; kinase named in each table line); details: TAOK3/JIK
full kinase panel [2] = target: full kinase panel (Homo sapiens, UniProt P35968); assay: as above; details: KDR/VEGFR2
full kinase panel [3] = target: full kinase panel (Homo sapiens, UniProt P22455); assay: as above; details: FGFR4
full kinase panel [4] = target: full kinase panel (Homo sapiens, UniProt P23458); assay: as above; details: JAK1
full kinase panel [5] = target: full kinase panel (Homo sapiens, UniProt P29376); assay: as above; details: TYK1/LTK
full kinase panel [6] = target: full kinase panel (Homo sapiens, UniProt P29323); assay: as above; details: EPHB2
full kinase panel [7] = target: full kinase panel (Homo sapiens, UniProt Q16832); assay: as above; details: DDR2
full kinase panel [8] = target: full kinase panel (Homo sapiens, UniProt P54753); assay: as above; details: EPHB3
full kinase panel [9] = target: full kinase panel (Homo sapiens, UniProt Q16584); assay: as above; details: MLK3/MAP3K11
full kinase panel [10] = target: full kinase panel (Homo sapiens, UniProt Q96SB4); assay: as above; details: SRPK1
full kinase panel [11] = target: full kinase panel (Homo sapiens, UniProt P08922); assay: as above; details: ROS/ROS1
full kinase panel [12] = target: full kinase panel (Homo sapiens, UniProt O75716); assay: as above; details: STK16
full kinase panel [13] = target: full kinase panel (Homo sapiens, UniProt P54762); assay: as above; details: EPHB1
full kinase panel [14] = target: full kinase panel (Homo sapiens, UniProt P07947); assay: as above; details: YES/YES1
full kinase panel [15] = target: full kinase panel (Homo sapiens, UniProt Q9Y2K2); assay: as above; details: SIK3
full kinase panel [16] = target: full kinase panel (Homo sapiens, UniProt Q07912); assay: as above; details: ACK1
full kinase panel [17] = target: full kinase panel (Homo sapiens, UniProt P22607); assay: as above; details: FGFR3
full kinase panel [18] = target: full kinase panel (Homo sapiens, UniProt Q15759); assay: as above; details: P38B/MAPK11
full kinase panel [19] = target: full kinase panel (Homo sapiens, UniProt Q15418); assay: as above; details: RSK1
SW480 = assay: Cell growth inhibition, SW480 (CCK-8); details: read-out: Cell growth inhibition GI50, SW480, 72 hours
SW620 = assay: Cell growth inhibition, SW620 (CCK-8); details: read-out: Cell growth inhibition GI50, SW620, 72 hours
DLD-1 = assay: Cell growth inhibition, DLD-1 (CCK-8); details: read-out: Cell growth inhibition GI50, DLD-1, 72 hours
PKACG = PKACG (Homo sapiens, UniProt P22612); assay: Kinase panel inhibition, PKACG; details: 1 μM
PYK2 = PYK2 (Homo sapiens, UniProt Q14289); assay: Kinase panel inhibition, PYK2; details: 1 μM
RAF1 = RAF1 (Homo sapiens, UniProt P04049); assay: Kinase panel inhibition, RAF1; details: 1 μM

## Cc1cn(-c2cc(C(=O)Nc3ccc(C)c(N4Cc5cnc(NC6CC6)nc5C5(CC5)C4=O)c3)cc(C(F)(F)F)c2)cn1
RET
  kinase inhibited by 60% or more: ◯ (residual enzyme activity values were 40% or less, i.e., inhibited by 60% or more)
Full kinase panel [1]
  kinase inhibition (residual enzyme activity): ◯ (residual enzyme activity values were 40% or less, i.e., inhibited by 60% or more)
Full kinase panel [2]
  kinase inhibition (residual enzyme activity): ◯ (residual enzyme activity values were 40% or less, i.e., inhibited by 60% or more)
Full kinase panel [3]
  kinase inhibition (residual enzyme activity): ◯ (residual enzyme activity values were 40% or less, i.e., inhibited by 60% or more)
Full kinase panel [4]
  kinase inhibition (residual enzyme activity): ◯ (residual enzyme activity values were 40% or less, i.e., inhibited by 60% or more)
Full kinase panel [5]
  kinase inhibition (residual enzyme activity): ◯ (residual enzyme activity values were 40% or less, i.e., inhibited by 60% or more)
Full kinase panel [6]
  kinase inhibition (residual enzyme activity): ◯ (residual enzyme activity values were 40% or less, i.e., inhibited by 60% or more)
Full kinase panel [7]
  kinase inhibition (residual enzyme activity): ◯ (residual enzyme activity values were 40% or less, i.e., inhibited by 60% or more)
Full kinase panel [8]
  kinase inhibition (residual enzyme activity): ◯ (residual enzyme activity values were 40% or less, i.e., inhibited by 60% or more)
Full kinase panel [9]
  kinase inhibition (residual enzyme activity): ◯ (residual enzyme activity values were 40% or less, i.e., inhibited by 60% or more)
Full kinase panel [10]
  kinase inhibition (residual enzyme activity): ◯ (residual enzyme activity values were 40% or less, i.e., inhibited by 60% or more)
Full kinase panel [11]
  kinase inhibition (residual enzyme activity): ◯ (residual enzyme activity values were 40% or less, i.e., inhibited by 60% or more)
Full kinase panel [12]
  kinase inhibition (residual enzyme activity): ◯ (residual enzyme activity values were 40% or less, i.e., inhibited by 60% or more)
Full kinase panel [13]
  kinase inhibition (residual enzyme activity): ◯ (residual enzyme activity values were 40% or less, i.e., inhibited by 60% or more)
Full kinase panel [14]
  kinase inhibition (residual enzyme activity): ◯ (residual enzyme activity values were 40% or less, i.e., inhibited by 60% or more)
Full kinase panel [15]
  kinase inhibition (residual enzyme activity): ◯ (residual enzyme activity values were 40% or less, i.e., inhibited by 60% or more)
Full kinase panel [16]
  kinase inhibition (residual enzyme activity): ◯ (residual enzyme activity values were 40% or less, i.e., inhibited by 60% or more)
Full kinase panel [17]
  kinase inhibition (residual enzyme activity): ◯ (residual enzyme activity values were 40% or less, i.e., inhibited by 60% or more)
Full kinase panel [18]
  kinase inhibition (residual enzyme activity): ◯ (residual enzyme activity values were 40% or less, i.e., inhibited by 60% or more)
Full kinase panel [19]
  kinase inhibition (residual enzyme activity): ◯ (residual enzyme activity values were 40% or less, i.e., inhibited by 60% or more)
SW480
  GI50: < 5 µM
SW620
  GI50: < 5 µM
DLD-1
  GI50: < 5 µM
PKACG
  kinase inhibited by 60% or more: ◯ (residual enzyme activity values were 40% or less, i.e., inhibited by 60% or more)
PYK2
  kinase inhibited by 60% or more: ◯ (residual enzyme activity values were 40% or less, i.e., inhibited by 60% or more)
RAF1
  kinase inhibited by 60% or more: ◯ (residual enzyme activity values were 40% or less, i.e., inhibited by 60% or more)
